The numbers were not newly measured in patent publication US20230310628A1, “Multi-Targeted Multi-Valent Ligand Drug Particles for the Treatment and Prevention of Diseases and Conditions” (priority 2017, published 2023), which cites them from elsewhere.

The subject of this data set is EGFR-overexpressing human breast cancer cells. To be noted: anti-EGFR immunoliposomes; cited from earlier work.

As for “cetuximab-Fab′: Fab′ derived from cetuximab”, the “surface valency of conjugated ligands at plateau of cell binding and internalization” value is on record as 30-40 /liposome.
